Literature values as cited in US4866036A, “Dipeptidyl 5-0,6-0-acyl-2-amino-2-deoxy-D-glucofuranose compositions and methods of use in aids-immunocompromised human hosts” (priority 1987, dated 1989).

Settings: clinical trials or clinical use

SMILES: NC(=O)c1ncn([C@@H]2O[C@H](CO)[C@@H](O)[C@H]2O)n1 [Ribavirin, 1β-D ribofuranosyl 1,2,4-triazole 3-carboxamide]
- toxicity / adverse effects in patients: well tolerated
